Protein sequences, listed by entry. Tags and fused reporters are not part of them. Residues count along the entry.
UniProt P23458, 875-1153 limits assumed: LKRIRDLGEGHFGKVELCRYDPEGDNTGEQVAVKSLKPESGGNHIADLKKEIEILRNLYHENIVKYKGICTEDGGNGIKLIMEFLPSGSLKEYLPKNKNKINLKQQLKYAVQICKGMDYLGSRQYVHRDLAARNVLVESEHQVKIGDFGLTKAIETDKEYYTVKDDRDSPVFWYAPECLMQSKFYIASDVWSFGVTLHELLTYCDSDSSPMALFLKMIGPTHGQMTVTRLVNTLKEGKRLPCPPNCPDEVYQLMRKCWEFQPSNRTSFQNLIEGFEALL

According to patent US8937077B2, “Bicyclic diamines as janus kinase inhibitors” (Merck Sharp & Dohme Corp., priority 2010, dated 2015):

Biological target: Jak1 (Homo sapiens, UniProt P23458)
Test: Jak Biochemical HTRF Assay (Jak1)
Details: read-out: Jak1 activity, IC50 class, recombinant GST-tagged catalytic domain
Description: Compounds of formula I can be prepared according to the general procedures described in the Schemes and Examples herein, using appropriate materials. Representative compounds of the present invention are exemplified herein below. The compounds exemplified are not, however, to be construed as limiting the scope of the invention in any manner. The examples further illustrate details for the preparation of the compounds of the present invention. Those skilled in the art will readily understand that known variations of protecting groups, of reagents, as well as of the conditions and processes of the following preparative procedures, can be used to prepare these compounds. It is also understood that whenever a chemical reagent is not commercially available, such a chemical reagent can be readily prepared by those skilled in the art by either following or adapting known methods described in the literature or described herein. […] Mass spectra (MS) were measured either by electrospray ion-mass spectroscopy (ESMS) or by atmospheric pressure chemical ionization mass spectroscopy (APCI). […]
The ability of compounds to inhibit the activity of Jak1, Jak2, Jak3, and Tyk2 was measured using a recombinant purified GST-tagged catalytic domain for each enzyme (Invitrogen Jak1 #M4290, […]) in an HTRF format biochemical assay. […] HTRF signal=10,000*665 nm reading/615 nm reading. […]

SMILES: O=C(OCc1ccccc1)N1CCCC2C1CCN2c1ncnc2[nH]ccc12 (single isomer, unassigned) [Enantiomer A]
- IC50: 100 to 1000 nM

SMILES: O=C(OCc1ccccc1)N1CCCC2C1CCN2c1ncnc2[nH]ccc12 (single isomer, unassigned) [Enantiomer B]
- IC50: 1 to 10 nM
